Article PMC8421203 (Nucleic Acids Research, 2021)

Biological target: Zebrafish PHF14PZP (278–487) (zebrafish)
Assay: ITC

Kd: 76.6 µM
Substance: H3(1–15) K9me3 peptide (from UniProt P68431 2-16)
